Here are results for 18 compounds from ChEMBL document CHEMBL3879899, “Gastrin releasing peptide compounds” (2011).

Protein sequences, listed by entry. Tags and fused reporters are not part of them. Lines headed by an entry give the natural chain unless they say otherwise; changes in a name come on top.
UniProt P30550: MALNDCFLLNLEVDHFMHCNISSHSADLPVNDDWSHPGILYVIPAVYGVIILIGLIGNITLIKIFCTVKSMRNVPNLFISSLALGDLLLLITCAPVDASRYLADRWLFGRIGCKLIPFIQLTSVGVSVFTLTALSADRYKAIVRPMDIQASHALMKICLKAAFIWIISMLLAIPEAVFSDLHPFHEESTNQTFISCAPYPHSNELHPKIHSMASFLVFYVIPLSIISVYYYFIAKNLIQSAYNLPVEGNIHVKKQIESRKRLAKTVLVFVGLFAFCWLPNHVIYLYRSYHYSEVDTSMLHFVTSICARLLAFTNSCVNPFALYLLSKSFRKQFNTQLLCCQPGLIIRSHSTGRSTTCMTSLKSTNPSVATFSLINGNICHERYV

A word on the IC50: it is the midpoint of a concentration-inhibition curve.

Each structure is given as a SMILES string.

One experiment concerns the target Gastrin-releasing peptide receptor (Homo sapiens, UniProt P30550). The experiment in a line: Displacement of [125I]-BBN from GRPR in human PC3 cells after 1 hr by compuGamma counting or microplate scintillation counting method. The experiment is classed as cell-based, PC-3.
Details: not given
The compound `CSCC[C@H](NC(=O)[C@H](CC(C)C)NC(=O)[C@H](Cc1cnc[nH]1)NC(=O)CNC(=O)[C@@H](NC(=O)[C@H](C)NC(=O)[C@H](Cc1c[nH]c2ccccc12)NC(=O)[C@H](CCC(N)=O)NC(=O)CNC(=O)[C@H](CO)NC(=O)COCCOCCNC(=O)CNC(=O)[C@H](CSCNC(C)=O)NC(=O)[C@H](CO)NC(=O)CN(C)C)C(C)C)C(N)=O` came in with an IC50 of 4 to 46 nM.
Same read-out and setting: for `CSCC[C@H](NC(=O)[C@H](CC(C)C)NC(=O)[C@H](Cc1cnc[nH]1)NC(=O)CNC(=O)[C@@H](NC(=O)[C@H](C)NC(=O)[C@H](Cc1c[nH]c2ccccc12)NC(=O)[C@H](CCC(N)=O)NC(=O)[C@H](CO)NC(=O)CN1CCN(CCNC(=O)CNC(=O)[C@H](CSCNC(C)=O)NC(=O)[C@H](CO)NC(=O)CN(C)C)CC1)C(C)C)C(N)=O` the value was 25 nM; for `CSCC[C@H](NC(=O)[C@H](CC(C)C)NC(=O)[C@H](Cc1cnc[nH]1)NC(=O)CNC(=O)[C@@H](NC(=O)[C@H](C)NC(=O)[C@H](Cc1c[nH]c2ccccc12)NC(=O)[C@H](CCC(N)=O)NC(=O)[C@H](CO)NC(=O)COCCOCCNC(=O)CNC(=O)[C@H](CSCNC(C)=O)NC(=O)[C@H](CO)NC(=O)CN(C)C)C(C)C)C(N)=O`, 36 nM.
Same read-out and setting: for `CSCC[C@H](NC(=O)[C@H](CC(C)C)NC(=O)[C@H](Cc1cnc[nH]1)NC(=O)CNC(=O)[C@@H](NC(=O)[C@H](C)NC(=O)[C@H](Cc1c[nH]c2ccccc12)NC(=O)[C@H](CCC(N)=O)NC(=O)[C@H](CC(=O)O)NC(=O)CN1CCN(CCNC(=O)CNC(=O)[C@H](CSCNC(C)=O)NC(=O)[C@H](CO)NC(=O)CN(C)C)CC1)C(C)C)C(N)=O` the value was more than 50 nM; for `CSCC[C@H](NC(=O)[C@H](CC(C)C)NC(=O)[C@H](Cc1cnc[nH]1)NC(=O)CNC(=O)[C@@H](NC(=O)[C@H](C)NC(=O)[C@H](Cc1c[nH]c2ccccc12)NC(=O)[C@H](CCC(N)=O)NC(=O)CNC(=O)[C@H](CC(=O)O)NC(=O)COCCOCCNC(=O)CNC(=O)[C@H](CSCNC(C)=O)NC(=O)[C@H](CO)NC(=O)CN(C)C)C(C)C)C(N)=O`, 37 to 43 nM; for `CSCC[C@H](NC(=O)[C@H](CC(C)C)NC(=O)[C@H](Cc1cnc[nH]1)NC(=O)CNC(=O)[C@@H](NC(=O)[C@H](C)NC(=O)[C@H](Cc1c[nH]c2ccccc12)NC(=O)[C@H](CCC(N)=O)NC(=O)[C@H](CCCNC(=N)N)NC(=O)CN1CCN(CCNC(=O)CNC(=O)[C@H](CSCNC(C)=O)NC(=O)[C@H](CO)NC(=O)CN(C)C)CC1)C(C)C)C(N)=O`, 36 nM.
With `CC(C)C[C@H](NC(=O)[C@H](CC(C)C)NC(=O)[C@H](Cc1cnc[nH]1)NC(=O)CNC(=O)[C@@H](NC(=O)[C@H](C)NC(=O)[C@H](Cc1c[nH]c2ccccc12)NC(=O)[C@H](CCC(N)=O)NC(=O)[C@@H](Cc1ccccc1)NC(=O)c1ccc(NC(=O)CNC(=O)CN2CCN(CC(=O)O)CCN(CC(=O)O)CCN(CC(=O)O)CC2)cc1)C(C)C)C(N)=O`, the IC50 was determined as 340 nM.
On the same count and under the same terms, for `CSCC[C@H](NC(=O)[C@H](CC(C)C)NC(=O)[C@H](Cc1cnc[nH]1)NC(=O)CNC(=O)[C@@H](NC(=O)[C@H](C)NC(=O)[C@H](Cc1c[nH]c2ccccc12)NC(=O)[C@H](CCC(N)=O)NC(=O)[C@H](CCC(=O)O)NC(=O)COCCOCCNC(=O)CNC(=O)[C@H](CSCNC(C)=O)NC(=O)[C@H](CO)NC(=O)CN(C)C)C(C)C)C(N)=O` the value was more than 50 nM.
Still for that read-out and setting: for `CSCC[C@H](NC(=O)[C@H](CC(C)C)NC(=O)[C@H](Cc1cnc[nH]1)NC(=O)CNC(=O)[C@@H](NC(=O)[C@H](C)NC(=O)[C@H](Cc1c[nH]c2ccccc12)NC(=O)[C@H](CCC(N)=O)NC(=O)[C@@H](C)NC(=O)COCCOCCNC(=O)CNC(=O)[C@H](CSCNC(C)=O)NC(=O)[C@H](CO)NC(=O)CN(C)C)C(C)C)C(N)=O` the value was 11 nM.
Compound `CSCC[C@H](NC(=O)[C@H](CC(C)C)NC(=O)[C@H](Cc1cnc[nH]1)NC(=O)CNC(=O)[C@@H](NC(=O)[C@H](C)NC(=O)[C@H](Cc1c[nH]c2ccccc12)NC(=O)[C@H](CCC(N)=O)NC(=O)[C@H](CCCNC(=N)N)NC(=O)COCCOCCNC(=O)CNC(=O)[C@H](CSCNC(C)=O)NC(=O)[C@H](CO)NC(=O)CN(C)C)C(C)C)C(N)=O` showed an IC50 of 6 nM.
`CSCC[C@H](NC(=O)[C@H](CC(C)C)NC(=O)[C@H](Cc1cnc[nH]1)NC(=O)CNC(=O)[C@@H](NC(=O)[C@H](C)NC(=O)[C@H](Cc1c[nH]c2ccccc12)NC(=O)[C@H](CCC(N)=O)NC(=O)CNC(=O)[C@H](CCCNC(=N)N)NC(=O)COCCOCCNC(=O)CNC(=O)[C@H](CSCNC(C)=O)NC(=O)[C@H](CO)NC(=O)CN(C)C)C(C)C)C(N)=O` came in with an IC50 of 36 to 50 nM.
On the same count and under the same terms, for `CSCC[C@H](NC(=O)[C@H](CC(C)C)NC(=O)[C@H](Cc1cnc[nH]1)NC(=O)CNC(=O)[C@@H](NC(=O)[C@H](C)NC(=O)[C@H](Cc1c[nH]c2ccccc12)NC(=O)[C@H](CCC(N)=O)NC(=O)[C@H](CC(=O)O)NC(=O)COCCOCCNC(=O)CNC(=O)[C@H](CSCNC(C)=O)NC(=O)[C@H](CO)NC(=O)CN(C)C)C(C)C)C(N)=O` the value was more than 50 nM; for `CC(C)C[C@H](NC(=O)[C@H](Cc1ccccc1)NC(=O)[C@H](Cc1c[nH]cn1)NC(=O)CNC(=O)[C@@H](NC(=O)[C@H](C)NC(=O)[C@H](Cc1c[nH]c2ccccc12)NC(=O)[C@H](CCC(N)=O)NC(=O)c1ccc(NC(=O)CNC(=O)CN2CCN(CC(=O)O)CCN(CC(=O)O)CCN(CC(=O)O)CC2)cc1)C(C)C)C(N)=O`, 2.5 nM.

Still in this experiment, the particulars now being: pc-3.
As to `CCCC[C@H](NC(=O)[C@H](Cc1ccccc1)NC(=O)[C@H](Cc1c[nH]cn1)NC(=O)CCNC(=O)[C@@H](NC(=O)[C@H](C)NC(=O)[C@H](Cc1c[nH]c2ccccc12)NC(=O)[C@H](CCC(N)=O)NC(=O)[C@@H](Cc1ccc(O)cc1)NC(=O)c1ccc(NC(=O)CNC(=O)CN2CCN(CC(=O)O)CCN(CC(=O)O)CCN(CC(=O)O)CC2)cc1)C(C)C)C(N)=O`, the IC50 was 46 nM.
The same measure, in the same setting: for `CCCCCNC(=O)[C@H](CC(C)C)NC(=O)[C@H](Cc1cnc[nH]1)NC(=O)CNC(=O)[C@@H](NC(=O)[C@H](C)NC(=O)[C@H](Cc1c[nH]c2ccccc12)NC(=O)[C@H](CCC(N)=O)NC(=O)[C@@H](Cc1ccccc1)NC(=O)c1ccc(NC(=O)CNC(=O)CN2CCN(CC(=O)O)CCN(CC(=O)O)CCN(CC(=O)O)CC2)cc1)C(C)C` the value was 75 nM; for `CCCC[C@H](NC(=O)[C@H](CC(C)C)NC(=O)[C@H](Cc1c[nH]cn1)NC(=O)CNC(=O)[C@@H](NC(=O)[C@H](C)NC(=O)[C@H](Cc1c[nH]c2ccccc12)NC(=O)[C@H](CCC(N)=O)NC(=O)CCCCCCCNC(=O)CN1CCN(CC(=O)O)CCN(CC(=O)O)CCN(CC(=O)O)CC1)C(C)C)C(N)=O`, 11 nM.
For `CCCC[C@H](NC(=O)[C@H](Cc1ccccc1)NC(=O)[C@H](Cc1c[nH]cn1)NC(=O)CCNC(=O)[C@@H](NC(=O)[C@H](C)NC(=O)[C@H](Cc1c[nH]c2ccccc12)NC(=O)[C@H](CCC(N)=O)NC(=O)[C@H](Cc1ccccc1)NC(=O)c1ccc(NC(=O)CNC(=O)CN2CCN(CC(=O)O)CCN(CC(=O)O)CCN(CC(=O)O)CC2)cc1)C(C)C)C(N)=O`, the IC50 worked out at 52 nM.
The same measure, in the same setting: for `CSCC[C@H](NC(=O)[C@H](CC(C)C)NC(=O)[C@H](Cc1cnc[nH]1)NC(=O)[C@@H](C)NC(=O)[C@@H](NC(=O)[C@H](C)NC(=O)[C@H](Cc1c[nH]c2ccccc12)NC(=O)[C@H](CCC(N)=O)NC(=O)c1ccc(NC(=O)CNC(=O)CN2CCN(CC(=O)O)CCN(CC(=O)O)CCN(CC(=O)O)CC2)cc1)C(C)C)C(N)=O` the value was 13 nM.

In the next experiment the target is T1, Neuromedin-B receptor (Rattus norvegicus, UniProt P24053).
T1 sequence (P24053 whole entry): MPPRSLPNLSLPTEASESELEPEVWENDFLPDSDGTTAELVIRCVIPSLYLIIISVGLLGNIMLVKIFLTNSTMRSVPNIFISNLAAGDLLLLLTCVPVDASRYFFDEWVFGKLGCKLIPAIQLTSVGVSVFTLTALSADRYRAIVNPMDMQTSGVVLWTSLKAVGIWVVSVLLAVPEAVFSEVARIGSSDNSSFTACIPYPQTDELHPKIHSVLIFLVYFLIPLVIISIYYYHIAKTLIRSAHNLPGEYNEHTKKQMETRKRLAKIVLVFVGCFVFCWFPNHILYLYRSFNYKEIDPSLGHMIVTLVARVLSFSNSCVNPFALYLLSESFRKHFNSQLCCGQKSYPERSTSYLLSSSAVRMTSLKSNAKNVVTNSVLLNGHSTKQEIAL
The experiment in a line: Displacement of [125I]-NMB from NMB receptor in rat C6 cells. It counts as cell-based.
Details: not given
For orientation: In a radioligand displacement assay an active substance lowers the binding of a labelled ligand.
In turn, `CSCC[C@H](NC(=O)[C@H](CC(C)C)NC(=O)[C@H](Cc1cnc[nH]1)NC(=O)CNC(=O)[C@@H](NC(=O)[C@H](C)NC(=O)[C@H](Cc1c[nH]c2ccccc12)NC(=O)[C@H](CCC(N)=O)NC(=O)[C@H](CO)NC(=O)CN1CCN(CCNC(=O)CNC(=O)[C@H](CSCNC(C)=O)NC(=O)[C@H](CO)NC(=O)CN(C)C)CC1)C(C)C)C(N)=O` displayed an IC50 of 13 nM.

Still in this experiment, the particulars now being: c6.
For `CCCC[C@H](NC(=O)[C@H](CC(C)C)NC(=O)[C@H](Cc1c[nH]cn1)NC(=O)CNC(=O)[C@@H](NC(=O)[C@H](C)NC(=O)[C@H](Cc1c[nH]c2ccccc12)NC(=O)[C@H](CCC(N)=O)NC(=O)CCCCCCCNC(=O)CN1CCN(CC(=O)O)CCN(CC(=O)O)CCN(CC(=O)O)CC1)C(C)C)C(N)=O`, the IC50 worked out at 14 nM.
